Cyclic peptide permeability, from CycPeptMPDB

PAMPA measures passive passage through an artificial lipid membrane.
Values are log10 P with P in cm/s, so -5 is more permeable than -7.

SMILES | PAMPA (log10 cm/s)
CC(=O)N1CCC[C@@H]1C(=O)N(C)[C@@H](CC(C)C)C(=O)N[C@@H]1C(=O)N[C@H](CC(C)C)C(=O)N[C@@H](CC(C)C)C(=O)N(C)[C@H](CC(C)C)C(=O)N[C@@H](C)C(=O)N[C@@H](CC(C)C)C(=O)N2CCC[C@@H]2C(=O)O[C@@H]1C | -5.40
CC(=O)N1CCC[C@@H]1C(=O)N(C)[C@@H](CC(C)C)C(=O)N[C@@H]1C(=O)N[C@@H](CC(C)C)C(=O)N(C)[C@@H](CC(C)C)C(=O)N(C)[C@@H](CC(C)C)C(=O)N[C@@H](C)C(=O)N[C@@H](CC(C)C)C(=O)N2CCC[C@H]2C(=O)O[C@@H]1C | -6.70
CC(=O)N[C@@H]1C(=O)N2CCC[C@H]2C(=O)N(C)[C@H](CC(C)C)C(=O)N[C@@H](CC(C)C)C(=O)N[C@H](CC(C)C)C(=O)N[C@H](CC(C)C)C(=O)N(C)[C@@H](C)C(=O)N[C@@H](CC(C)C)C(=O)N2CCC[C@@H]2C(=O)O[C@@H]1C | -6.44
CC(=O)N1CCC[C@@H]1C(=O)N(C)[C@H](CC(C)C)C(=O)N[C@@H]1C(=O)N[C@H](CC(C)C)C(=O)N(C)[C@@H](CC(C)C)C(=O)N[C@H](CC(C)C)C(=O)N[C@@H](C)C(=O)N[C@H](CC(C)C)C(=O)N2CCC[C@H]2C(=O)O[C@@H]1C | -6.38
CC(=O)N1CCC[C@H]1C(=O)N(C)[C@H](CC(C)C)C(=O)N[C@@H]1C(=O)N(C)[C@@H](CC(C)C)C(=O)N(C)[C@H](CC(C)C)C(=O)N(C)[C@@H](CC(C)C)C(=O)N(C)[C@@H](C)C(=O)N[C@H](CC(C)C)C(=O)N2CCC[C@H]2C(=O)O[C@@H]1C | -5.18
CC(=O)N1CCC[C@H]1C(=O)N(C)[C@@H](CC(C)C)C(=O)N[C@@H]1C(=O)N(C)[C@H](CC(C)C)C(=O)N(C)[C@H](CC(C)C)C(=O)N(C)[C@@H](CC(C)C)C(=O)N(C)[C@@H](C)C(=O)N[C@H](CC(C)C)C(=O)N2CCC[C@H]2C(=O)O[C@@H]1C | -5.06
CC(=O)N1CCC[C@@H]1C(=O)N(C)[C@@H](CC(C)C)C(=O)N[C@@H]1C(=O)N[C@H](CC(C)C)C(=O)N[C@@H](CC(C)C)C(=O)N[C@@H](CC(C)C)C(=O)N(C)[C@H](C)C(=O)N[C@H](CC(C)C)C(=O)N2CCC[C@@H]2C(=O)O[C@@H]1C | -5.47
CC(=O)N1CCC[C@@H]1C(=O)N(C)[C@H](CC(C)C)C(=O)N[C@@H]1C(=O)N[C@H](CC(C)C)C(=O)N[C@H](CC(C)C)C(=O)N[C@H](CC(C)C)C(=O)N(C)[C@H](C)C(=O)N[C@@H](CC(C)C)C(=O)N2CCC[C@H]2C(=O)O[C@@H]1C | -6.38
CC(=O)N1CCC[C@H]1C(=O)N(C)[C@@H](CC(C)C)C(=O)N[C@@H]1C(=O)N(C)[C@@H](CC(C)C)C(=O)N[C@@H](CC(C)C)C(=O)N[C@H](CC(C)C)C(=O)N(C)[C@H](C)C(=O)N[C@@H](CC(C)C)C(=O)N2CCC[C@H]2C(=O)O[C@@H]1C | -5.27
CC(=O)N1CCC[C@@H]1C(=O)N(C)[C@@H](CC(C)C)C(=O)N[C@@H]1C(=O)N[C@H](CC(C)C)C(=O)N(C)[C@H](CC(C)C)C(=O)N(C)[C@H](CC(C)C)C(=O)N(C)[C@H](C)C(=O)N[C@@H](CC(C)C)C(=O)N2CCC[C@H]2C(=O)O[C@@H]1C | -5.50
CC(=O)N1CCC[C@@H]1C(=O)N(C)[C@@H](CC(C)C)C(=O)N[C@@H]1C(=O)N[C@@H](CC(C)C)C(=O)N(C)[C@@H](CC(C)C)C(=O)N[C@@H](CC(C)C)C(=O)N(C)[C@@H](C)C(=O)N[C@H](CC(C)C)C(=O)N2CCC[C@H]2C(=O)O[C@@H]1C | -6.00
CC(=O)N1CCC[C@@H]1C(=O)N(C)[C@H](CC(C)C)C(=O)N[C@@H]1C(=O)N(C)[C@@H](CC(C)C)C(=O)N[C@@H](CC(C)C)C(=O)N(C)[C@@H](CC(C)C)C(=O)N(C)[C@H](C)C(=O)N[C@H](CC(C)C)C(=O)N2CCC[C@H]2C(=O)O[C@@H]1C | -5.91
CC(=O)N1CCC[C@H]1C(=O)N[C@@H]1C(=O)N(C)[C@H](CC(C)C)C(=O)N[C@@H](CC(C)C)C(=O)N[C@H](CC(C)C)C(=O)N[C@@H](CC(C)C)C(=O)N(C)[C@H](C)C(=O)N[C@@H](CC(C)C)C(=O)N2CCC[C@@H]2C(=O)O[C@@H]1C | -6.03
CC(=O)N1CCC[C@@H]1C(=O)N(C)[C@@H](CC(C)C)C(=O)N[C@@H]1C(=O)N[C@@H](CC(C)C)C(=O)N(C)[C@@H](CC(C)C)C(=O)N(C)[C@@H](CC(C)C)C(=O)N(C)[C@@H](C)C(=O)N[C@@H](CC(C)C)C(=O)N2CCC[C@@H]2C(=O)O[C@@H]1C | -5.11
CC(=O)N1CCC[C@H]1C(=O)N(C)[C@@H](CC(C)C)C(=O)N[C@@H]1C(=O)N(C)[C@@H](CC(C)C)C(=O)N[C@H](CC(C)C)C(=O)N(C)[C@@H](CC(C)C)C(=O)N(C)[C@@H](C)C(=O)N[C@@H](CC(C)C)C(=O)N2CCC[C@@H]2C(=O)O[C@@H]1C | -6.35

A selection of 2 entries from above:

{"smiles": "CC(=O)N1CCC[C@@H]1C(=O)N(C)[C@@H](CC(C)C)C(=O)N[C@@H]1C(=O)N[C@H](CC(C)C)C(=O)N[C@@H](CC(C)C)C(=O)N(C)[C@H](CC(C)C)C(=O)N[C@@H](C)C(=O)N[C@@H](CC(C)C)C(=O)N2CCC[C@@H]2C(=O)O[C@@H]1C", "PAMPA (log10 cm/s)": "-5.40"}
{"smiles": "CC(=O)N[C@@H]1C(=O)N2CCC[C@H]2C(=O)N(C)[C@H](CC(C)C)C(=O)N[C@@H](CC(C)C)C(=O)N[C@H](CC(C)C)C(=O)N[C@H](CC(C)C)C(=O)N(C)[C@@H](C)C(=O)N[C@@H](CC(C)C)C(=O)N2CCC[C@@H]2C(=O)O[C@@H]1C", "PAMPA (log10 cm/s)": "-6.44"}

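Conditions beyond the assay type are not listed; see the original paper. Other peptides of the study may be missing here. Entries at the database's floor value (log10 P of -10) are not listed.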

Source: CycPeptMPDB (Li et al. 2023), which took these values from Kelly et al. 2021, doi:10.1021/jacs.0c06115.